Here are results for 1 compound from ChEMBL document CHEMBL2057107, “Synthesis and evaluation of aplysinopsin analogs as inhibitors of human monoamine oxidase A and B” (Bioorg Med Chem Lett, 2012).

For the assay, the species on record is Homo sapiens. Nature of the assay: Selectivity ratio of IC50 for human recombinant MAO-B to IC50 for human recombinant MAO-A.

For `CN1C(=N)N(C)/C(=C/c2c[nH]c3cc(Br)ccc23)C1=O`, the Ratio IC50 came to 80.2.
